Binding of CDR-mutated scFvs to a peptide of the spike HR2 region

Values reported by Li et al. 2023, doi:10.1038/s41467-023-39022-2 (FLAb copy).

Antigen: PDVDLGDISGINAS, a 14-residue peptide of the SARS-CoV-2 spike HR2 region.

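Phage display of a naive human antibody library on the peptide gave the parent. The variants were designed computationally from a first round of random CDR variants and then made and measured. Group labels follow the data file (En: ensemble of fine-tuned language models; GP: Gaussian process model; HC: hill climbing; Gen: genetic algorithm; Gibbs: Gibbs sampling; a sequence that several methods proposed may carry one label only). In AlphaSeq, yeast of one mating type display the scFv and yeast of the other type display the target. After mating in shaken culture at 30 °C for 16 h, diploids were selected and their barcode pairs sequenced. The ratio of observed to expected reads was calibrated, replicate by replicate, on BCL2-family standards whose Kd was known from biolayer interferometry. Mating was done six times.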

Ab-14 is the parent antibody, in scFv form: VH, then a 15-residue (Gly4Ser)3 linker, then VL. The heavy chain is unchanged in all variants.
VH: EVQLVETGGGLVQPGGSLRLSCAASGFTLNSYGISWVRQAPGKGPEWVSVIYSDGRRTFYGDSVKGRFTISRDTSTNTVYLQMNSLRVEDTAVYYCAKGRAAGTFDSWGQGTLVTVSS
VL: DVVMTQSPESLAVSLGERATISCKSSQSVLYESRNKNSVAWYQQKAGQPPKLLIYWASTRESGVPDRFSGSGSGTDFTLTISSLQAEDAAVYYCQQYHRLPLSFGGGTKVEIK

Each variant is given by its three light chain CDRs, as the data file delimits them; those of the parent are KSSQSVLYESRNKNSVA, WASTRES, QQYHRLPLS.
Variants here have more than six changes.
Affinities are written as log10 Kd with Kd in nM; a lower number is a better binder.
Averages over replicates are reported, and they cover detected replicates only.
An entry "ND" has no value in the source: the pair was not observed among the diploids in that replicate. This suggests poor binding but is not conclusive.

For HVHMEFAEEKNIRYNIA | DASMRLA | QQYVRLPLG [En_Gibbs], the assay gave 0.76, 0.76, 0.20, 0.74, 0.67, 0.75 (mean 0.65). The variant TLQDWGTYGMENGNRIA | ERSKLEW | QQYGRLPLS [En_Gibbs] gave 1.39, 1.08, 0.98, 1.13, 1.29, 1.69 (mean 1.26). With KLSQYVGGETRNKSSLA | DNNTRED | QQYERLPLS [En_HC] the result was 1.37, 1.37, 0.88, 1.94, 1.36, 1.20 (mean 1.36). The variant KLTMMYQHTSLNKNNIA | ERSTREE | QQYHHLPLS [En_HC] gave 0.40, 0.50, 0.20, 0.32, 0.22, 0.60 (mean 0.37). The variant KLYVSTMLESHDKNSIA | DLTTRGN | QQYHRLPLS [En_HC] gave 0.80, 0.37, 0.28, 0.14, 0.43, 0.53 (mean 0.43). With TLGDVTRMESNKKSSIA | DMSNRAS | QQYHRLPIS [En_HC] the result was 0.80, 0.33, 1.17, 0.15, -0.04, 0.46 (mean 0.48). The variant MLSEVLHMLGVKKNSIA | DLVIRAN | QQYHRLPLA [En_Gen] showed 1.88, 0.95, 0.95, 1.19, 1.66, 1.27 (mean 1.32). For MSYGGDMLESATRNSVA | NAETRED | QDYHRLPLS [En_HC], the assay gave 1.62, 1.58, 1.22, 1.71, 1.06, 1.46 (mean 1.44). The variant KILQTVMNETRNRNNVA | HMTTRED | QQYFRLPLS [En_HC] gave 1.30, 0.98, 2.27, 1.86, 1.96, 1.74 (mean 1.68).

The variant KLDQKMDQFGQNGNNIA | HGEEFRI | QQYHSLPLS [En_Gibbs] gave ND, 2.58, ND, ND, 4.17, 2.65 (mean 3.13). The variant MVSQLMLWGLHAKNSIA | EAQTRLN | QQYDRLPLE [En_Gen] gave 1.30, ND, ND, ND, 1.67, 1.53 (mean 1.50). For HITMGMYVSGRHMSNIA | QAETREK | QQYDRLPLI [En_Gen], the assay gave 0.43, -0.10, 0.46, 0.55, 0.58, 0.88 (mean 0.47). For HMSALTLQGMRLRNSVA | QMTTREN | QQYDHLPLA [En_Gen], the assay gave 0.76, 0.85, 0.76, 0.77, 0.65, 1.01 (mean 0.80). With HISQMWMLESFNKNNVA | EESTRED | QSYFRLPLS [En_HC] the result was ND, ND, 1.72, 2.24, 3.05, 2.85 (mean 2.46). The variant NISQSVGMTSRNKNSVA | ENSTRED | QQYDRLPLS [En_HC] gave 0.10, ND, ND, ND, ND, ND. The variant KLYVSTMLEEHDKNSIA | DLSTRGN | QQYHRLPLS [En_HC] showed 0.89, 0.57, 0.51, 0.17, 0.65, 1.04 (mean 0.64). The variant KLMQMMPYESRNANSVA | NASTREE | QQYHRLPLS [GP_Gibbs] gave -0.34, -0.20, -0.26, 0.01, -0.30, -0.01 (mean -0.18). The variant TISQSTYWESYNKNSVA | QTSTREE | QDYDRLPLS [En_HC] gave 1.46, ND, 2.32, ND, ND, ND (mean 1.89).

For MISTLTMYGSRNVNSVA | DLSTRGS | QQYHRLPLS [En_HC], the assay gave 0.70, 0.87, 0.72, 0.54, 0.98, 0.88 (mean 0.78). The variant SLPNARPDGSLQKNNVA | EGTERSD | QQYMRLPLF [En_Gibbs] gave 0.36, 0.24, 0.14, 0.02, 0.00, 0.21 (mean 0.16). For MMSMGYLGGMRAKNNVA | QESTRES | QQYHRLPLI [En_HC], the assay gave 1.41, 1.21, 1.39, 1.20, 1.80, 1.32 (mean 1.39). The variant KIGGVTNGISRSKNSVA | EQSTRED | QQYDRLPLT [En_HC] gave 0.24, 0.15, 0.66, -0.11, 0.16, 0.57 (mean 0.28). For KIQWYPLEFRGTIQAVA | EASTRYN | QQYMHLPLS [En_Gibbs], the assay gave ND, ND, ND, ND, 1.40, ND. With FLSQSVLYEERLDNSVA | NASTRCS | QQYHRLPLS [GP_Gibbs] the result was 1.15, 0.83, 1.26, 0.79, 1.34, 1.26 (mean 1.10). The variant MISQLYNMGQFAINSVA | QASERNA | QQYDRLPLM [En_Gen] showed 2.05, 2.26, 1.09, 1.83, 1.28, 1.48 (mean 1.66). The variant TISQMSTLFSQSINNVA | EVSTRLN | QQYDRLPLT [En_Gen] showed 0.94, 1.01, 0.99, 0.57, 0.65, 1.03 (mean 0.87). With IVSQLMLWGMHAKNSIA | EAELRLN | QQYDRLPLI [En_Gen] the result was ND, 3.18, ND, ND, ND, ND.

With MISQILNMGQFAINSVA | QAETRCN | QQYDRLPLE [En_Gen] the result was 2.06, 2.12, 1.80, ND, 2.30, 2.33 (mean 2.12). The variant MIAGSMENQEANWAPVA | SATCKEP | QQYSRLPLM [En_Gibbs] gave 1.46, 0.95, 0.88, 1.35, 1.59, 1.64 (mean 1.31). With KLYQSEGYESRNDNNVA | NASLRES | QQYHRLPLS [GP_Gibbs] the result was -0.18, -0.18, -0.17, -0.46, -0.37, -0.27 (mean -0.27). The variant QLQWLAINGQGVMNNIA | DRVQEQM | QQYFRLPFT [En_Gibbs] gave ND, 1.75, ND, ND, ND, 1.35 (mean 1.55). The variant HSSWGVDDESRNDNSVA | KASTRES | QQYHRLPLS [GP_Gibbs] showed 0.18, -0.14, -0.04, 0.02, -0.10, 0.22 (mean 0.02). With KLYQSTVIESFNKNNVA | EMTTRES | QSYDRLPLS [En_HC] the result was ND, ND, 2.40, ND, 2.25, ND (mean 2.32). The variant MLSQMWAIGMKVSNSVA | QASTRFE | QQYERLPFI [En_Gen] showed 0.86, 1.27, 1.10, 1.80, 0.67, 1.42 (mean 1.19). The variant TISNSFLMENQFKNSVA | QASTRES | QCYDRLPLS [En_HC] showed 1.64, 1.92, 1.49, 2.22, 2.93, 2.32 (mean 2.09). With TISQMWFLESHNKNNVA | EESTRED | QSYFRLPLS [En_HC] the result was 1.03, 0.75, 0.89, 1.48, 1.57, 1.08 (mean 1.13).

The variant NFPQEVMYESHFKNNVA | QTSTREP | QQYDHLPLS [En_HC] showed 0.40, 0.14, 0.24, 0.24, 0.63, 0.37 (mean 0.34). The variant TISQMLLMQTSHKNNVA | GEETRYS | QQYHRLPLS [En_HC] showed 0.60, 0.56, 0.21, 0.54, 0.21, 0.48 (mean 0.43). For KVMGEMLYESRNKNSVA | HASERES | QQYHRLPLQ [GP_Gibbs], the assay gave 0.68, 2.55, 1.10, 1.70, 0.66, 1.55 (mean 1.38). With QIYQAMHTLMNAKNNIA | DVTNRNN | QQYHRLPLS [En_Gen] the result was 0.82, 0.67, 0.70, 0.75, 0.59, 0.79 (mean 0.72). The variant KLTMITGLEKVQGQNVA | EMETREK | QQYNRLPLS [En_Gen] gave 0.88, ND, 1.53, 1.07, 1.21, 1.64 (mean 1.27). The variant KIQKYTYNEFLDRNHIA | EESTKVT | QQYFMLPLT [En_Gibbs] gave 1.20, ND, ND, 1.17, 2.10, 2.23 (mean 1.68). With KLVQFMNRGTHHTSNIA | DAQNRCD | QQYYRLPLA [En_Gen] the result was 0.81, 0.80, 0.53, 0.60, 0.86, 0.94 (mean 0.76). With HITMGMYVSGRYKSNIA | QAETRMK | QQYDRLPLI [En_Gen] the result was 1.31, 1.04, 1.26, 1.18, 1.09, 1.21 (mean 1.18). With KISMLQRYESQVKNNIA | EMSRREE | QQYHRLPLS [En_HC] the result was 0.39, 0.17, 0.33, 0.16, 0.43, 0.33 (mean 0.30).

A sequence measured in both rounds can read differently, since the two assays cover different ranges.
Empty control strains, which show no peptide, gave a signal in 4% of pairings with all light chain designs; the median was 2.64 and 95% of these signals were weaker than 1.59. No background was subtracted.
The authors averaged sequences with at least three values out of six and counted those with two or fewer as poor binders.